Results on 1 molecule are retold here after US20260209387A1, “SINGLE-DOMAIN ANTIBODY FOR INHIBITION OF NEUTROPHIL ELASTASE ACTIVITY” (UNIVERSITE DE LIEGE, priority 2023, published 2026).

In assay [1] the target is T1, hNE (Homo sapiens, UniProt P08246).
T1 construct: purchased Elastin Products Company (EPC)
T1 sequence (P08246 30-247): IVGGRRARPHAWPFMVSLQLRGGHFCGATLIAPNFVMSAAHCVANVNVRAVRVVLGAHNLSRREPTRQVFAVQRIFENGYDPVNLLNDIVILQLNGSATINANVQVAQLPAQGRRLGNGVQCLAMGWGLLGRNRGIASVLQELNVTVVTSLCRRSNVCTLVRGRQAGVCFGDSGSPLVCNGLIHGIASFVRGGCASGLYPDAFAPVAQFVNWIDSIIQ
Description: hNE inhibition, hydrolysis of elastin (Elastin-CongoRed). Format: biochemical. The note with it: hNE 132 nM, 16 hours at 37° C. As for the experimental part:
1.6.2. Inhibition of the hydrolysis of elastin, a natural substrate of hNE. […] The samples were incubated for 16 hours at 37° C. with orbital shaking (900 rpm). The samples were then centrifuged at 90′000 g for 30 minutes at 4° C. to separate the insoluble Elastin from the digested and soluble molecule fragments. The soluble fraction was transferred into a 384-wells clear plate and the absorbance of Congo-red was measured at 495 nm in a SpectraMax M2e Microplates Reader (Molecular Devices, California, USA). The absorbance of the samples at different inhibitor: hNE molar ratios was compared to that measured in the absence of inhibitor, to determine the residual hNE activity. A sample of Elastin-Congo red without elastase was used as blank.

Assay [2] deals with T1, hNE. Description: hNE inhibition, hydrolysis of chromogenic substrate N-Succinyl-Ala-Ala-Ala-paraNitroAnilide. Format: biochemical. Conditions: hNE 50 nM; substrate 1 mM.

As to `CC(C)(C)C(=O)Oc1ccc(S(=O)(=O)Nc2ccccc2C(=O)NCC(=O)O)cc1` [Sivelestat], the IC50 in assay [1] amounted to 7.76 ± 0.255 µM; in assay [2], 0.077 ± 0.001 µM.
